## Permeability data for macrocyclic peptides

Source: CycPeptMPDB (Li et al. 2023), which took these values from Kelly et al. 2021, doi:10.1021/jacs.0c06115.

PAMPA measures passive passage through an artificial lipid membrane. Permeability is in 10^-6 cm/s, converted from the database's log10 values; higher is more permeable.

{"smiles": "CC(=O)N1CCC[C@H]1C(=O)N[C@@H]1C(=O)N[C@H](CC(C)C)C(=O)N[C@@H](CC(C)C)C(=O)N(C)[C@H](CC(C)C)C(=O)N[C@@H](CC(C)C)C(=O)N(C)[C@@H](C)C(=O)N[C@@H](CC(C)C)C(=O)N2CCC[C@@H]2C(=O)O[C@@H]1C", "PAMPA (10^-6 cm/s)": "4.2"}
{"smiles": "CC(=O)N1CCC[C@H]1C(=O)N(C)[C@H](CC(C)C)C(=O)N[C@@H]1C(=O)N[C@@H](CC(C)C)C(=O)N(C)[C@H](CC(C)C)C(=O)N[C@H](CC(C)C)C(=O)N[C@H](C)C(=O)N[C@H](CC(C)C)C(=O)N2CCC[C@@H]2C(=O)O[C@@H]1C", "PAMPA (10^-6 cm/s)": "0.21"}
{"smiles": "CC(=O)N1CCC[C@@H]1C(=O)N(C)[C@H](CC(C)C)C(=O)N[C@@H]1C(=O)N[C@@H](CC(C)C)C(=O)N[C@@H](CC(C)C)C(=O)N[C@H](CC(C)C)C(=O)N[C@@H](C)C(=O)N[C@H](CC(C)C)C(=O)N2CCC[C@@H]2C(=O)O[C@@H]1C", "PAMPA (10^-6 cm/s)": "0.002"}
{"smiles": "CC(=O)N1CCC[C@H]1C(=O)N[C@@H]1C(=O)N[C@H](CC(C)C)C(=O)N(C)[C@@H](CC(C)C)C(=O)N[C@@H](CC(C)C)C(=O)N[C@H](CC(C)C)C(=O)N(C)[C@@H](C)C(=O)N[C@@H](CC(C)C)C(=O)N2CCC[C@@H]2C(=O)O[C@@H]1C", "PAMPA (10^-6 cm/s)": "3.1"}
{"smiles": "CC(=O)N1CCC[C@@H]1C(=O)N(C)[C@@H](CC(C)C)C(=O)N[C@@H]1C(=O)N(C)[C@H](CC(C)C)C(=O)N[C@H](CC(C)C)C(=O)N(C)[C@H](CC(C)C)C(=O)N(C)[C@H](C)C(=O)N[C@@H](CC(C)C)C(=O)N2CCC[C@H]2C(=O)O[C@@H]1C", "PAMPA (10^-6 cm/s)": "5.5"}
{"smiles": "CC(=O)N1CCC[C@@H]1C(=O)N(C)[C@H](CC(C)C)C(=O)N[C@@H]1C(=O)N(C)[C@@H](CC(C)C)C(=O)N(C)[C@@H](CC(C)C)C(=O)N(C)[C@H](CC(C)C)C(=O)N(C)[C@@H](C)C(=O)N[C@H](CC(C)C)C(=O)N2CCC[C@@H]2C(=O)O[C@@H]1C", "PAMPA (10^-6 cm/s)": "8.1"}
{"smiles": "CC(=O)N1CCC[C@@H]1C(=O)N(C)[C@@H](CC(C)C)C(=O)N[C@@H]1C(=O)N(C)[C@H](CC(C)C)C(=O)N[C@H](CC(C)C)C(=O)N[C@H](CC(C)C)C(=O)N[C@@H](C)C(=O)N[C@@H](CC(C)C)C(=O)N2CCC[C@@H]2C(=O)O[C@@H]1C", "PAMPA (10^-6 cm/s)": "0.72"}
{"smiles": "CC(=O)N1CCC[C@H]1C(=O)N[C@@H]1C(=O)N[C@H](CC(C)C)C(=O)N(C)[C@H](CC(C)C)C(=O)N[C@H](CC(C)C)C(=O)N[C@H](CC(C)C)C(=O)N(C)[C@@H](C)C(=O)N[C@@H](CC(C)C)C(=O)N2CCC[C@@H]2C(=O)O[C@@H]1C", "PAMPA (10^-6 cm/s)": "13"}
{"smiles": "CC(=O)N1CCC[C@H]1C(=O)N(C)[C@H](CC(C)C)C(=O)N[C@@H]1C(=O)N[C@@H](CC(C)C)C(=O)N[C@@H](CC(C)C)C(=O)N[C@H](CC(C)C)C(=O)N(C)[C@@H](C)C(=O)N[C@@H](CC(C)C)C(=O)N2CCC[C@H]2C(=O)O[C@@H]1C", "PAMPA (10^-6 cm/s)": "7.2"}
{"smiles": "CC(=O)N1CCC[C@H]1C(=O)N[C@@H]1C(=O)N[C@H](CC(C)C)C(=O)N(C)[C@@H](CC(C)C)C(=O)N(C)[C@@H](CC(C)C)C(=O)N(C)[C@@H](CC(C)C)C(=O)N(C)[C@H](C)C(=O)N[C@@H](CC(C)C)C(=O)N2CCC[C@@H]2C(=O)O[C@@H]1C", "PAMPA (10^-6 cm/s)": "9.8"}
{"smiles": "CC(=O)N1CCC[C@@H]1C(=O)N(C)[C@@H](CC(C)C)C(=O)N[C@@H]1C(=O)N(C)[C@H](CC(C)C)C(=O)N(C)[C@@H](CC(C)C)C(=O)N(C)[C@@H](CC(C)C)C(=O)N(C)[C@H](C)C(=O)N[C@H](CC(C)C)C(=O)N2CCC[C@H]2C(=O)O[C@@H]1C", "PAMPA (10^-6 cm/s)": "4.4"}
{"smiles": "CC(=O)N1CCC[C@H]1C(=O)N(C)[C@H](CC(C)C)C(=O)N[C@@H]1C(=O)N(C)[C@@H](CC(C)C)C(=O)N[C@@H](CC(C)C)C(=O)N(C)[C@@H](CC(C)C)C(=O)N(C)[C@@H](C)C(=O)N[C@H](CC(C)C)C(=O)N2CCC[C@@H]2C(=O)O[C@@H]1C", "PAMPA (10^-6 cm/s)": "3"}
{"smiles": "CC(=O)N1CCC[C@H]1C(=O)N(C)[C@@H](CC(C)C)C(=O)N[C@@H]1C(=O)N[C@H](CC(C)C)C(=O)N(C)[C@H](CC(C)C)C(=O)N[C@H](CC(C)C)C(=O)N[C@@H](C)C(=O)N[C@H](CC(C)C)C(=O)N2CCC[C@@H]2C(=O)O[C@@H]1C", "PAMPA (10^-6 cm/s)": "0.41"}

The first 2 entries again:

compound	PAMPA (10^-6 cm/s)
CC(=O)N1CCC[C@H]1C(=O)N[C@@H]1C(=O)N[C@H](CC(C)C)C(=O)N[C@@H](CC(C)C)C(=O)N(C)[C@H](CC(C)C)C(=O)N[C@@H](CC(C)C)C(=O)N(C)[C@@H](C)C(=O)N[C@@H](CC(C)C)C(=O)N2CCC[C@@H]2C(=O)O[C@@H]1C	4.2
CC(=O)N1CCC[C@H]1C(=O)N(C)[C@H](CC(C)C)C(=O)N[C@@H]1C(=O)N[C@@H](CC(C)C)C(=O)N(C)[C@H](CC(C)C)C(=O)N[C@H](CC(C)C)C(=O)N[C@H](C)C(=O)N[C@H](CC(C)C)C(=O)N2CCC[C@@H]2C(=O)O[C@@H]1C	0.21

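Lipid, pH, incubation time, direction and concentration are not recorded in the data file. The list need not hold all peptides of the study. Peptides that the database sets to -10, its floor, are left out.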